Data from US8962613B2, “P2X4 receptor antagonist” (Nippon Chemiphar Co., Ltd., priority 2010, dated 2015).

Target: T1, human P2X4 receptors (Homo sapiens, UniProt Q99571)
T1 sequence (Q99571 1-388): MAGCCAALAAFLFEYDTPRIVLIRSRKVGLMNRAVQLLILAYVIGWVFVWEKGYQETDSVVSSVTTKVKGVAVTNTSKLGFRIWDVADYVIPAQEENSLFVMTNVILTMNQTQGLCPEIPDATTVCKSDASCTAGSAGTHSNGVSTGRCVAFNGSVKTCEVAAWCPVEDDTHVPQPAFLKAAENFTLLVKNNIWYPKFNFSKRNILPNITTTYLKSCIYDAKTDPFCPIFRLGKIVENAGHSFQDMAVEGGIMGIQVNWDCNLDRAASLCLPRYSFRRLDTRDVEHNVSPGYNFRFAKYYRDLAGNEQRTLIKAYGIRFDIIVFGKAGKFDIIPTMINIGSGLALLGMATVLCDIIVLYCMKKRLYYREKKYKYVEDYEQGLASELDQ
Experiment: P2X4 receptor antagonism, intracellular calcium influx assay (Fura-2 AM, ATP-induced)
Format: cell-based
Details: Table 19; 1321N1 cells stably expressing human P2X4 receptors; compound added 15 min before ATP; fluorescence ratio F340/F380 vs control; read-out: Inhibition activities (IC50 μM)
Description: 1321N1 cells stably expressing human P2X4 receptors were adopted for calcium influx assay. P2X4/1321N1 cells were plated in 96-well assay plate and cultured for 24 hours in an atmosphere of 5% CO2 at 37° C. Fura-2 AM calcium indicator dissolved in an extracellular solution for calcium imaging was loaded onto cells for 45 minutes at room temperature. The fluorescence was detected by FLUOstar OPTIMA micro plate reader (BMG labtech). The cells were alternatively illuminated with two excitations wavelengths (340 nm and 380 nm) via xenon lamp and the emitted fluorescence was measured at 510 nm. The fluorescence changes after the treatment of 1 μM ATP were monitored and determined the fluorescence ratio (F340/F380) as the index of intracellular calcium change. Tested compounds were treated to cells 15 min before the addition of ATP and the inhibition activities of compounds were calculated by comparing the Ca^2+ response with control in the absence of tested compound.
P2X4 receptor antagonism of the compound of the present invention was measured as described below. […]
Test compounds were treated to cells for 15 minutes before the addition of ATP, and the response to intracellular calcium influx induced by addition of ATP was monitored by a micro plate reader. The fluorescence ratio of excitations wavelengths of 340 nm and 380 nm was used as the index of intracellular calcium change. […]

O=C1CC(=O)N(c2cccc(-c3nnn[nH]3)c2)c2ccc3c(c2N1)CCCC3.[Na] [Example 2, 5-[3-(1H-Tetrazol-5-yl)phenyl]-8,9,10,11-tetrahydronaphtho[2,1-b][1,4]diazepine-2,4(3H,5H)-dione sodium salt]
IC50: 0.36 µM
